# scFv variants of Ab-14 (heavy chain) against a SARS-CoV-2 spike peptide

Binding partner: SARS-CoV-2 spike HR2 peptide, sequence PDVDLGDISGINAS.

Parent scFv Ab-14: VH joined to VL by a (GGGGS)3 linker. Changes lie in the heavy chain CDRs alone.
VH: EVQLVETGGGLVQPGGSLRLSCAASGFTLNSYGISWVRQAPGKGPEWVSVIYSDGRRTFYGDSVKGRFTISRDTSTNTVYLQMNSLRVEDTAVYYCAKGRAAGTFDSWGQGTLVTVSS
VL: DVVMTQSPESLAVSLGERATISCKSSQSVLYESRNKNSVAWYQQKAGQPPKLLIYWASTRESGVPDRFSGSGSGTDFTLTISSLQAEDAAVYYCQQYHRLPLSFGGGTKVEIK

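The starting antibody came from a phage panning campaign against this peptide. This is the validation round: designs drawn from the data on random variants, tested in the same kind of assay. Group labels follow the data file (Ctrl: baseline library sampled from a position-specific scoring matrix, with some repeated check sequences; GPLM: also part of the Gaussian process libraries; Gen: genetic algorithm; a sequence that several methods proposed may carry one label only). In AlphaSeq, yeast of one mating type display the scFv and yeast of the other type display the target. Mating (16 h, 30 °C) was followed by selection of diploids and sequencing of their barcodes. Read counts were normalised to the haploid input and turned into Kd by a linear fit to BCL2-family pairs of known affinity, for each replicate. The assay was run in six technical replicates.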

Sequences are complete VH domains.
The read-out is the apparent dissociation constant on a log10 scale (nM): the lower, the stronger.
"ND" marks a missing value. The strain was present, yet no cells mated with the target were sequenced in that replicate, which points to weak or no binding.
Empty control strains, which show no peptide, gave a signal in 1% of pairings with all heavy chain designs; the median was 2.08 and 95% of these signals were weaker than 0.84. No background was subtracted. Also given: how often the same scFv was detected with the empty control strains, with their mean in brackets.

{"VH": "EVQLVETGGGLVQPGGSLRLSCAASGNTLNSYGISWVRQAPGKGPEWVSVIYSDGRRTAYGDSVKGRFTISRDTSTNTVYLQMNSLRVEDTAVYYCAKWRAAGTFHSWGQGTLVTVSS", "group": "Ctrl", "replicates, log10 nM": "ND 2.66 ND 2.97 ND ND", "signal with controls": "0/18"}
{"VH": "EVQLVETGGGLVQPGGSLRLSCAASGFTLNSYGISWVRQAPGKGPEWVSVIYSDGRRTAYLDSVKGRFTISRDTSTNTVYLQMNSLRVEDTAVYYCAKGRGAGTADSWGQGTLVTVSS", "group": "Ctrl", "replicates, log10 nM": "ND ND ND ND 2.59 ND", "signal with controls": "0/18"}
{"VH": "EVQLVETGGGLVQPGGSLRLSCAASDFTLNSYGISWVRQAPGKGPEWVSVIYSDGRRTYYADSVKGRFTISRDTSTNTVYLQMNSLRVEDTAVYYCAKGRVAGTFKSWGQGTLVTVSS", "group": "Ctrl", "replicates, log10 nM": "ND ND 2.72 ND ND ND", "signal with controls": "0/18"}
{"VH": "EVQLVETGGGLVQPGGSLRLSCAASGFTLNSYGISWVRQAPGKGPEWVSVIYSDGRRTFYGDSVKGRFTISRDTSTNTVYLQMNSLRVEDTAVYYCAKGRNAHTFDSWGQGTLVTVSS", "group": "Ctrl", "replicates, log10 nM": "ND ND ND ND ND ND", "signal with controls": "0/18"}
{"VH": "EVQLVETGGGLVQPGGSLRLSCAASGFTLNSYGISWVRQAPGKGPEWVSVIYADGRRTFYGDSVKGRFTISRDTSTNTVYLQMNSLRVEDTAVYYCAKGRAAGTFDVWGQGTLVTVSS", "group": "Ctrl+GPLM_Gen", "replicates, log10 nM": "-0.34 -0.27 0.18 -0.36 -0.19 0.07; ND ND ND ND ND ND", "signal with controls": "0/36"}
{"VH": "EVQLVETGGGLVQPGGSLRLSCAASGFTLNSYGISWVRQAPGKGPEWVSVIYSDGRRTFYTDSVKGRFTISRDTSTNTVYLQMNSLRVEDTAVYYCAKDRADGTFDLWGQGTLVTVSS", "group": "Ctrl", "replicates, log10 nM": "ND ND ND ND ND ND", "signal with controls": "0/18"}
{"VH": "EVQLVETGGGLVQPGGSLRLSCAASGFTLNVYGISWVRQAPGKGPEWVSVIYSDGRRTFYGDSVKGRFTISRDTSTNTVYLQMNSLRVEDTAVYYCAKGDAAGTFDSWGQGTLVTVSS", "group": "Ctrl", "replicates, log10 nM": "ND 1.36 1.33 1.59 ND 1.73", "signal with controls": "0/18"}
{"VH": "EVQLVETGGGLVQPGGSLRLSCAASGFTLNSYGISWVRQAPGKGPEWVSVIYSDGRRTFYGDEVKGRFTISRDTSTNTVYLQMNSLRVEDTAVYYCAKGDAEGTFDSWGQGTLVTVSS", "group": "Ctrl", "replicates, log10 nM": "ND ND ND ND ND ND", "signal with controls": "0/18"}
{"VH": "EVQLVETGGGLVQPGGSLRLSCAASGFTLSEYGISWVRQAPGKGPEWVSVIYSDGRRTWYGDQVKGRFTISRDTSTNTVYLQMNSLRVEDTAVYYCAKGRAAGTFDSWGQGTLVTVSS", "group": "Ctrl", "replicates, log10 nM": "ND ND ND ND ND ND", "signal with controls": "0/18"}
{"VH": "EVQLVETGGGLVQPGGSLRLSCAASGNTLNDYGISWVRQAPGKGPEWVSVDYSDGRRTFYSDSVKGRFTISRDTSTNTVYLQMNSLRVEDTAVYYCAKGTARGTFDSWGQGTLVTVSS", "group": "Ctrl", "replicates, log10 nM": "ND ND ND ND ND ND", "signal with controls": "0/18"}
{"VH": "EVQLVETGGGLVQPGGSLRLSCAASGFTLNSYGIQWVRQAPGKGPEWVSVIYSDGRRTFYGDSVKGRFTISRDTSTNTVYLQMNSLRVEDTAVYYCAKGRGAGTFDSWGQGTLVTVSS", "group": "Ctrl", "replicates, log10 nM": "ND ND ND ND ND ND", "signal with controls": "0/18"}
{"VH": "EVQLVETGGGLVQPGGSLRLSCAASGFDLNSYGISWVRQAPGKGPEWVSVIYSDGRRTFYGDSVAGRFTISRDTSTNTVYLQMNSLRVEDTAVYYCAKGRVAGTFDSWGQGTLVTVSS", "group": "Ctrl", "replicates, log10 nM": "1.05 0.71 0.83 0.17 0.34 0.55", "signal with controls": "0/18"}
{"VH": "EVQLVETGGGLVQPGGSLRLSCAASGFTLNSYGISWVRQAPGKGPEWVSVIYSDGRRTFYHDSVKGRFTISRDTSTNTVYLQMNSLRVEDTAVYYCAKGQAAGTFESWGQGTLVTVSS", "group": "Ctrl", "replicates, log10 nM": "ND ND ND ND ND ND", "signal with controls": "0/18"}
{"VH": "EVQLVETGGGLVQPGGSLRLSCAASGFNLNSYGISWVRQAPGKGPEWVSVIYSDGRRTFYGDSVKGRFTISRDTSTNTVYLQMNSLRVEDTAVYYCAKGRVAGTFDSWGQGTLVTVSS", "group": "Ctrl+GPLM_Gen", "replicates, log10 nM": "0.96 0.93 1.09 0.94 1.62 0.66; 1.03 0.75 1.57 1.28 1.22 1.17", "signal with controls": "0/36"}
{"VH": "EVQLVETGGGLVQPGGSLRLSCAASGFTLNSYGISWVRQAPGKGPEWVSVIYSDGRRTFYGDSVKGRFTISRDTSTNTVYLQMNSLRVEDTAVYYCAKGRAAGTFEDWGQGTLVTVSS", "group": "Ctrl", "replicates, log10 nM": "ND ND ND ND ND ND", "signal with controls": "1/18 (0.50)"}
{"VH": "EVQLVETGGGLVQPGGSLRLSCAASTFKLNSYGISWVRQAPGKGPEWVSVIYSDGRRTFYGDSTKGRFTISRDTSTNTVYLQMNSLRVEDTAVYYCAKGRDAGTFDWWGQGTLVTVSS", "group": "Ctrl", "replicates, log10 nM": "ND ND ND ND ND ND", "signal with controls": "0/18"}
{"VH": "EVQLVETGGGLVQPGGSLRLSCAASGFDLNSYGISWVRQAPGKGPEWVSVIYADGRRTFYGDSVKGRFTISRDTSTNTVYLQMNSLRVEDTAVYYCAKHRAAGTFDLWGQGTLVTVSS", "group": "Ctrl", "replicates, log10 nM": "ND ND ND ND ND ND", "signal with controls": "0/18"}
{"VH": "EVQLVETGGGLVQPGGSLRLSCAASGFSLNSYGISWVRQAPGKGPEWVSVIYSDGRRTFYMDAVKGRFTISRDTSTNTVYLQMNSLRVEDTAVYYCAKGRWAGTFDSWGQGTLVTVSS", "group": "Ctrl", "replicates, log10 nM": "ND ND ND ND ND ND", "signal with controls": "0/18"}
{"VH": "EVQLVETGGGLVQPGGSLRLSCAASGFTLRDYGISWVRQAPGKGPEWVSVIYSDGRRTFYADSVKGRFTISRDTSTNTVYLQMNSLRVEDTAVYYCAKGFAAGTFDSWGQGTLVTVSS", "group": "Ctrl", "replicates, log10 nM": "ND ND ND ND ND ND", "signal with controls": "0/18"}
{"VH": "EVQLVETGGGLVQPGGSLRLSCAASGFTLNKYGISWVRQAPGKGPEWVSVIYSDGRRTFYGDSVKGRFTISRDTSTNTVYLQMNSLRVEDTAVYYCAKGREAGTFDSWGQGTLVTVSS", "group": "Ctrl", "replicates, log10 nM": "0.69 0.20 0.43 0.10 1.04 0.34", "signal with controls": "0/18"}
{"VH": "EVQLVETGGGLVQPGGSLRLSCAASGFTLNSYGISWVRQAPGKGPEWVSVIYSDGRRTFYSDSVKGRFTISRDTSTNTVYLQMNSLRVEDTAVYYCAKHRAAITFDSWGQGTLVTVSS", "group": "Ctrl", "replicates, log10 nM": "ND ND ND ND ND ND", "signal with controls": "0/18"}
{"VH": "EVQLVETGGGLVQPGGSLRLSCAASGFPLNSYGISWVRQAPGKGPEWVSVIYSDGRRTFYGDSVKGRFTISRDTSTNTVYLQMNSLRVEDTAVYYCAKRQAAGTKDSWGQGTLVTVSS", "group": "Ctrl", "replicates, log10 nM": "2.03 2.89 ND ND ND 2.38", "signal with controls": "0/18"}
{"VH": "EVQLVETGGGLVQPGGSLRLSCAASGFTLNSYGISWVRQAPGKGPEWVSVIYSDGRRTFYNDSVKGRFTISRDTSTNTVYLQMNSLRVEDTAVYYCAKGRAAGTFMWWGQGTLVTVSS", "group": "Ctrl", "replicates, log10 nM": "ND 1.52 1.72 ND ND ND", "signal with controls": "0/18"}
{"VH": "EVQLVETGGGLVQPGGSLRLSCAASGFTANSYGISWVRQAPGKGPEWVSVIYSDGRRTFYGDSVRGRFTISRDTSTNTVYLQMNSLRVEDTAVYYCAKGRAIATFDSWGQGTLVTVSS", "group": "Ctrl", "replicates, log10 nM": "ND ND ND ND ND ND", "signal with controls": "1/18 (0.23)"}
{"VH": "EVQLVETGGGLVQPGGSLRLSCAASGFTLNSYGISWVRQAPGKGPEWVSVIYSDGRRTQYGDSVKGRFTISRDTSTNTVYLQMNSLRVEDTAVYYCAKGRAQGTFDSWGQGTLVTVSS", "group": "Ctrl", "replicates, log10 nM": "ND ND ND ND ND ND", "signal with controls": "0/18"}

A selection of 4 entries from above:

{"VH": "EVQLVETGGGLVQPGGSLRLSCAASGFTLNSYGISWVRQAPGKGPEWVSVIYSDGRRTFYSDSVKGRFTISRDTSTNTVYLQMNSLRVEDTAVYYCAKHRAAITFDSWGQGTLVTVSS", "group": "Ctrl", "replicates, log10 nM": "ND ND ND ND ND ND", "signal with controls": "0/18"}
{"VH": "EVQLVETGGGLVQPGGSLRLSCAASGFDLNSYGISWVRQAPGKGPEWVSVIYADGRRTFYGDSVKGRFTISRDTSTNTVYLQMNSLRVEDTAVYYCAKHRAAGTFDLWGQGTLVTVSS", "group": "Ctrl", "replicates, log10 nM": "ND ND ND ND ND ND", "signal with controls": "0/18"}
{"VH": "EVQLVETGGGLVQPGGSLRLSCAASGFTLNSYGISWVRQAPGKGPEWVSVIYSDGRRTFYHDSVKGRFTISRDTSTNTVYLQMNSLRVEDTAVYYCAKGQAAGTFESWGQGTLVTVSS", "group": "Ctrl", "replicates, log10 nM": "ND ND ND ND ND ND", "signal with controls": "0/18"}
{"VH": "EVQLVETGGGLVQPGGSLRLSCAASDFTLNSYGISWVRQAPGKGPEWVSVIYSDGRRTYYADSVKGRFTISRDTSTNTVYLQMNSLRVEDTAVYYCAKGRVAGTFKSWGQGTLVTVSS", "group": "Ctrl", "replicates, log10 nM": "ND ND 2.72 ND ND ND", "signal with controls": "0/18"}

In the paper, a design with two or fewer of six values counts as a poor binder.
A sequence measured in both rounds can read differently, since the two assays cover different ranges.
Some sequences occur more than once in the pool; their replicates are listed entry by entry, parted by semicolons.

From the AlphaSeq antibody data of Li et al. 2023 (doi:10.1038/s41467-023-39022-2), copy in the FLAb collection.